Results taken from ChEMBL document CHEMBL2203066 (J Med Chem, 2012).

Key:
physchem = details: octanol/water, pH 7.4
in vivo = details: Sprague-Dawley, rat, po, 10 mg/kg

SMILES	logD at 24 h (physchem)	half-life (in vivo) [h]
CCOC(=O)C1=C[C@@H](OC(CC)CC)[C@H](NC(C)=O)[C@@H](N)C1 [OSELTAMIVIR]	0.36	
CCC(CC)O[C@@H]1C=C(C(=O)O)C[C@H](N)[C@H]1NC(C)=O [OSELTAMIVIR CARBOXYLATE]		10.6
